{"source": "patent US7172752B2", "about": "“Combination particles for the treatment of asthma” (Orion Corporation, priority 2000, dated 2007)", "origin": "cited, not measured here", "data": [{"substance": "Formoterol fumarate", "values": [{"measurement": "solubility in ethanol", "setting": "ethanol", "result": "sparingly soluble"}, {"measurement": "solubility in glacial acetic acid", "setting": "glacial acetic acid", "result": "freely soluble"}, {"measurement": "solubility in methanol", "setting": "methanol", "result": "soluble"}]}]}
